For 2 compounds, activity change, negative = inhibition results are on record in PubChem BioAssay AID894 (National Center for Advancing Translational Sciences (NCATS), 2007).

Amino acid sequences for entries named in this document (tags omitted).
UniProt P15428, whole entry: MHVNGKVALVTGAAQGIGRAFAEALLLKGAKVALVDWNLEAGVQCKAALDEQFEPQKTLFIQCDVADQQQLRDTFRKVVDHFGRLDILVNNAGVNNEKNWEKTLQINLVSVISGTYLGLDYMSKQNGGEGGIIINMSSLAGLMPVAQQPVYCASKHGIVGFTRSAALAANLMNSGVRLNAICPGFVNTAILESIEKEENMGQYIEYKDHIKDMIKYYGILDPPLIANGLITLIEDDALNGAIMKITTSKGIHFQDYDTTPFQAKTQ

The entries are a selection whose mix differs from that of the whole data set. Results filed as inconclusive are left out. Active and inactive are the calls of the source. The call rests on the fitted dose curve; in most records, active means well fitted inhibition curve with a large enough effect (not every such curve was filed as active); inconclusive means small, poorly fitted or top-dose-only effect, or another doubt; inactive means no such curve, though single readings can be large or run the other way.
On the % scale 0 is the no-effect control and ±100 the full control effect.

This experiment addresses 15-hydroxyprostaglandin dehydrogenase [NAD(+)] (Homo sapiens) (UniProt P15428). Briefly: qHTS Assay for Inhibitors of HPGD (15-Hydroxyprostaglandin Dehydrogenase). Further: test concentration not given here. As to conditions: purified HPGD, NADH fluorescence kinetic, PGE2 substrate; hits give low values.
Turning to `[N-]=[N+]=NCC(O)CN=[N+]=[N-]` (configuration not stated), the activity change, negative = inhibition is inactive: -11.9%.

Turning to `[N-]=[N+]=NCC(N)=O`, the activity change, negative = inhibition was inactive: -13.4%.
